# Measured values taken from patent US5559101A, “L-ribofuranosyl nucleosides” (priority 1994, dated 1996).
# Experiments:
# Type in all cases: cell-based
# bone marrow = test: In vitro survival of bone marrow control cells (radiometric BACTEC)
# From the text: (§1) CELL LINES: Eight different established human cell lines CALU (lung), COLO320 (colon), H578St (breast), HT-29 (colon), MCF-7 (breast), OM-1 (colon), SKLU (lung) and SKMES(lung), and two control cell lines (bone marrow and/or fibroblast cells) were utilized. All cell lines were obtained from the Tumor Cloning Laboratory, Institute for Drug Development, Cancer Therapy and Research Center, San Antonio, Tex. All cell lines grew as monolayers in the appropriate culture medium supplemented with heat-inactivated calf serum. All reagents were obtained from Grand Island Biological Co., Grand Island, N.Y.
# (§2) The iv formulations of the compounds of the present invention were prepared with sterile buffered saline and stored at -70° C. until required for testing.
# (§3) Following trypsinization, tumor cells were suspended in tissue culture medium and exposed to the antitumor agents continuously at three different concentrations: 10, 1 and 0.1 μg/ml.
# (§4) RADIOMETRIC MEASUREMENT OF GROWTH INHIBITION: Growth inhibition was assessed with the BACTEC System 460 (Johnston Laboratories, Towson, Md.) after addition of the antitumor agent to the cell in the respective growth medium containing ^14 C-glucose at a final concentration of 2 μCi/ml.
# (§5) Two mls of the tumor cell suspension containing radioactive glucose were seeded into sterile, disposable 15 ml vials by injection through self-sealing rubber-aluminum caps. […]
# MCF-7 (breast) = test: Radiometric growth inhibition of tumor cells, MCF-7; conditions: human, mcf-7 breast tumor cells
# From the text: as §1, §2, §3, §4, §5
# SKLU (lung) = test: Radiometric growth inhibition of tumor cells, SKLU; conditions: human
# From the text: as §1, §2, §3, §4, §5
# OM-1 (colon) = test: Radiometric growth inhibition of tumor cells, OM-1; conditions: human, om-1 colon tumor cells
# From the text: as §1, §2, §3, §4, §5
# HT29 (colon) = test: Radiometric growth inhibition of tumor cells, HT29; conditions: human
# From the text: as §1, §2, §3, §4, §5
substance,measurement,setting,value
2'-Deoxy-β-L-5-fluorouridine,% SURVIVAL BONE MARROW,bone marrow,104%
same,% SURVIVAL TUMOR,MCF-7 (breast),66.9%
same,% SURVIVAL TUMOR,SKLU (lung),83.9%
same,% SURVIVAL TUMOR,OM-1 (colon),66.7%
same,% SURVIVAL TUMOR,HT29 (colon),81.7%
